From US20240010694A1, “HYDROGELS CONTAINING AFFIBODIES AND USES THEREOF” (University of Oregon, priority 2022, published 2024)

Assays:
C2C12 cells = experiment: C2C12 alkaline phosphatase activity assay; assay type: cell-based, murine; conditions: 20 nM BMP-2 alone, 72 hours
Method: After 72 h, the cells were lysed with Cellytic M (Millipore Sigma), and their ALP activity was quantified and normalized to the total amount of double stranded DNA (dsDNA) present in each well.^88 For the ALP colorimetric assay, 50 μL buffer solution consisting of equal volumes of 1.5 M 2-amino-2methyl-1-propanol solution pH 10.25, 20 mM p-nitrophenyl phosphate solution, and 10 mM MgCl2 hexahydrate solution were mixed with 50 μL of lysed cells and incubated in the dark for 20 minutes before the absorbance of the solutions was read at 405 nm (Synergy Neo2, Biotek). The colorimetric change in the solutions was converted to p-nitrophenol concentration using a calibration curve of 0-0.8 μmol mL^−1 4-nitrophenol solution (Millipore Sigma). The QuantiFluor dsDNA System (Promega) was used for dsDNA quantification. The ALP activity in each well was normalized to the dsDNA content to account for variability in cell number between samples.
After 72 hours, cells were lysed and their ALP activity was quantified by a colorimetric change caused by the ALP-induced catalysis of p-nitro phenyl phosphate to p-nitrophenol.^88 ALP activity was normalized to the total amount of double-stranded DNA present in each cell culture.

[1] = target: T1, BMP receptor type II (BMPR-II) (Homo sapiens, UniProt Q13873); conditions: read-out: KD, BMP-2 knuckle epitope with BMPR-II; cited from earlier work
T1 sequence (Q13873 27-1038): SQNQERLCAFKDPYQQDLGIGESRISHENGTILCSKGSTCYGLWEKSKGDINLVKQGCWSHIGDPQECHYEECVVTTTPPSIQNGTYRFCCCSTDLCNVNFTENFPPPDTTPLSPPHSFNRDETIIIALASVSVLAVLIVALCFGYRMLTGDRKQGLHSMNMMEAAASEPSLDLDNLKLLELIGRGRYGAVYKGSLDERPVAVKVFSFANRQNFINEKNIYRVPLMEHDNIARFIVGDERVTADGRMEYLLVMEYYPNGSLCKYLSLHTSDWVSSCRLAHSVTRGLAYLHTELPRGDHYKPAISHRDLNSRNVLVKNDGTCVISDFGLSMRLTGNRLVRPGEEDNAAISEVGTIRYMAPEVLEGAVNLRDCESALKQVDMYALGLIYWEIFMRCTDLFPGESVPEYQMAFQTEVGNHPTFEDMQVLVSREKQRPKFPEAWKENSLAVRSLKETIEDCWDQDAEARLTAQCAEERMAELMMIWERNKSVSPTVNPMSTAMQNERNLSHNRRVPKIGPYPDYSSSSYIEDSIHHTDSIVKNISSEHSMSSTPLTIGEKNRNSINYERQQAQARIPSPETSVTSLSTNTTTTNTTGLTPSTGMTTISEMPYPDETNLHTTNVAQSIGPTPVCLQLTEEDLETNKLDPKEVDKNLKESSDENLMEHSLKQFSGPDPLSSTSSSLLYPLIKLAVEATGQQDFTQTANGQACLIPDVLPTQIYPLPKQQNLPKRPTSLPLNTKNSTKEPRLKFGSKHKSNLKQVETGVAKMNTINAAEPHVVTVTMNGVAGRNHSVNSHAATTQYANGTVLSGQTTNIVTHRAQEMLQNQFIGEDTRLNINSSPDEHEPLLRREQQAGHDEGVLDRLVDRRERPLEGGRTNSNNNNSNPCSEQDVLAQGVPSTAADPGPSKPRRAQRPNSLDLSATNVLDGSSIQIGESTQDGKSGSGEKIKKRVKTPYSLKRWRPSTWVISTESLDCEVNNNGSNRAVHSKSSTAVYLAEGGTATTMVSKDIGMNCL

## BMP-2: Recombinant human BMP-2 (Medtronic, R&D Systems)
C2C12 cells
  normalized ALP activity: 37.9±12.5 nmol pNPP μg^−1 dsDNA min^−1
[1]
  Kd: ~100 nM
